Sequences of proteins named here, by UniProt entry; tags and fusion partners are left off. Residues count along the entry.
UniProt I2CYF7, 29-500: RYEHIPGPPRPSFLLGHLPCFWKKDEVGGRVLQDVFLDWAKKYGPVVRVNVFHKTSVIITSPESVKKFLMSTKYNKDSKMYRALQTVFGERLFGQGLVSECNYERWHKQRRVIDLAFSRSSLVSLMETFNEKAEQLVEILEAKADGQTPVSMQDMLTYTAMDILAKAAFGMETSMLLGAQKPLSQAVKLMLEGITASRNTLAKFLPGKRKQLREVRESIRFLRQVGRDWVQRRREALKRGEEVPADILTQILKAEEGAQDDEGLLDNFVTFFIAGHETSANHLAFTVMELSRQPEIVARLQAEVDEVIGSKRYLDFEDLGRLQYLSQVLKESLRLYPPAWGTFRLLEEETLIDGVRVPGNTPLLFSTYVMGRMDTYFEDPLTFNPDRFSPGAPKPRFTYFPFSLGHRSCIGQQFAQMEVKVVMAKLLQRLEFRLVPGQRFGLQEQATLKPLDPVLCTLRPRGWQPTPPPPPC

According to patent publication US20250352676A1, “N-Cyclopropyl-1-(4-(4-(Fluoro-18f)Phenyl)Pyrimidin-5-Yl)-N-Methylpiperidine- 4-Carboxamide and Uses in PET Imaging” (Emory University, priority 2022, published 2025):

Target: CYP46A1 (Macaca mulatta, UniProt I2CYF7)
Assay: Target occupancy PET study in rhesus monkeys
Format: in vivo
Design: from tissue; host or cells: brain of living rhesus monkeys
Settings: rhesus monkey, iv, read-out: D50 (dose that exhibits 50% target occupancy)
Experimental: To test whether targeted visualization and quantitative assessment of drug-CYP46A1 interactions in the brain of NHPs could be obtained with this PET tracer, a dose-response experiment was performed using soticlestat as a model compound. Using a broad array of soticlestat intravenous doses, ranging from 0.04 to 0.9 μmol/kg, a consistent dose-dependent PET signal attenuation was observed, which allowed target occupancy modeling with noteworthy model accuracy across different brain regions.
Four rhesus monkeys (4.8 to 9.3 kg) were anesthetized by intramuscular injection of ketamine (10 mg/kg) and then put on the MRI scanning bed in the supine position. Whole-brain images were acquired. […] Whole-blood samples were collected from an arterial catheter to measure radioactivity in whole blood and plasma. Samples were centrifuged, and 100 μl of whole blood and plasma was measured in a gamma counter at 10, 20, 30, 40, 50, 60, 75, 90, 105, 120, 150, 180, 210, 240, 600, 900, 1200, 1800, 2700, 3920, 4500, and 5400 s after 18F-CHL-2205 injection. […]
Then, the mixture was injected into a high-performance liquid chromatography (HPLC) system equipped with a semipreparative IIPLC column and an ultraviolet detector with the wavelength set at 254 nm. […] The HPLC fractions were collected at 30-s intervals for 13 min; each fraction was counted with automatic gamma well counter. […]

SMILES: O=C(c1cccnc1-c1ccncc1)N1CCC(O)(Cc2ccccc2)CC1 [soticlestat]
- ED50: ~0.1 µmol/kg
